# Binding of CDR-mutated scFvs to a peptide of the spike HR2 region

The measurements come from Li et al. 2023 (doi:10.1038/s41467-023-39022-2) through the FLAb antibody collection.

Target peptide (SARS-CoV-2 spike, HR2 region): PDVDLGDISGINAS

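Phage display of a naive human antibody library on the peptide gave the parent. These sequences belong to a second round, designed from the earlier measurements on random variants of the parent. Group labels follow the data file (Ctrl: baseline library sampled from a position-specific scoring matrix, with some repeated check sequences; En: ensemble of fine-tuned language models; GP: Gaussian process model; HC: hill climbing; Gen: genetic algorithm; Gibbs: Gibbs sampling; a sequence that several methods proposed may carry one label only). The assay is AlphaSeq: two haploid yeast populations carry antibody and antigen on their surface. Mating (16 h, 30 °C) was followed by selection of diploids and sequencing of their barcodes. Read counts were normalised to the haploid input and turned into Kd by a linear fit to BCL2-family pairs of known affinity, for each replicate. Each pool was mated in six replicate cultures.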

Parent: Ab-14, a human scFv built as VH, the linker GGGGSGGGGSGGGGS, VL. Only the CDRs of the light chain vary.
VH: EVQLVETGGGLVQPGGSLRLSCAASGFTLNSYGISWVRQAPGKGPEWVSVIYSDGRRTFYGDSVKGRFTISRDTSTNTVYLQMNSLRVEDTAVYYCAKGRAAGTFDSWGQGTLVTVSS
VL: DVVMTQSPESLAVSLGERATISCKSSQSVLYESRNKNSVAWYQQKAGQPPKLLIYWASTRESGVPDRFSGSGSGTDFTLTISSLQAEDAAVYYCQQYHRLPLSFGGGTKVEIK

Each variant's VL is given in full.
Scale: log10 of Kd in nM, estimated from mating counts; low values are strong binders.
A pair that was not seen in that replicate is written "nd"; this usually means weak binding, but a binder can also be missed.

Variant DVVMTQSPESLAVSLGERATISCKLSQSVLYESRMKNSVAWYQQKAGQPPKLLIYGASQRESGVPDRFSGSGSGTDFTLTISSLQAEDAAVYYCQQYHRLPLSFGGGTKVEIK [GP_Gen] gave 0.07, -0.14, -0.26, -0.48, -0.46, 0.05.
Variant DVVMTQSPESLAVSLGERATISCMLSQSVGGESRNKNSVAWYQQKAGQPPKLLIYEAQTREQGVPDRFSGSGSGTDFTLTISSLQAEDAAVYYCQQYHRLPLSFGGGTKVEIK [GP_Gibbs] gave -0.04, -0.24, -0.43, -0.10, -0.35, 0.02.
Variant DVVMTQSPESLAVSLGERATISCKLSQSVLYEQRNKNSVAWYQQKAGQPPKLLIYNASTRESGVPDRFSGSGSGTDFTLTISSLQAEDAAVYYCQDYHRLPLSFGGGTKVEIK [GP_Gen] gave -0.03, -0.16, 0.06, -0.11, -0.10, 0.13.
Variant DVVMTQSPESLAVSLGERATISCHIDQYTSYDNGEDRAIAWYQQKAGQPPKLLIYDVTIKDYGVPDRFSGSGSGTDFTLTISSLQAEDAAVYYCQQYARLPLLFGGGTKVEIK [En_Gibbs] gave 2.15, 0.76, 1.23, 2.31, 1.88, 1.65.
Variant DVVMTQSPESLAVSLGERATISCKQSQSVLYESRNKNSVAWYQQKAGQPPKLLIYDASTRESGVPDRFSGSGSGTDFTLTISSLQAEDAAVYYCQQYHRLPLSFGGGTKVEIK [En_HC] gave -0.24, -0.15, -0.37, -0.44, -0.26, -0.06.
Variant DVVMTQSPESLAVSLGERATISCKSQQSVLYESRNKNSVAWYQQKAGQPPKLLIYFASTRESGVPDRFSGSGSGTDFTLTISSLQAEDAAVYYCQQYHRVPLSFGGGTKVEIK [Ctrl] gave nd, nd, nd, nd, nd, nd.
Variant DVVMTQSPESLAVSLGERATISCKLSISGLYESRNKNSVAWYQQKAGQPPKLLIYAASTRESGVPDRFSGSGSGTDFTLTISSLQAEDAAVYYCQQYHRLPLSFGGGTKVEIK [GP_HC] gave -0.22, -0.29, -0.24, -0.32, -0.19, 0.10.

Further variants, results first:

1.20, 1.02, 1.07, 0.85, 0.81, 0.99 for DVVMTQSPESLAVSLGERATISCQISQSVLDESRNKNSVAWYQQKAGQPPKLLIYWASTRESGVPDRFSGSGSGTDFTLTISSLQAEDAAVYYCQQYHRLPLSFGGGTKVEIK [Ctrl].
nd, nd, nd, nd, nd, nd for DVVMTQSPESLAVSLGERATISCKSSCSVLYESRNKNSVAWYQQKAGQPPKLLIYWASTRESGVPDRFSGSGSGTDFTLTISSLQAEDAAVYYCQQYFRLPLSFGGGTKVEIK [Ctrl].
0.80, 0.81, 0.65, 0.70, 1.11, 0.55 for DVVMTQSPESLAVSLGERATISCKSSQSVLYESRNKNSVAWYQQKAGQPPKLLIYDASTRESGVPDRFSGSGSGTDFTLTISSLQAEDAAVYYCQQYHRMPLSFGGGTKVEIK [Ctrl].
0.87, 0.92, 1.00, 0.97, 0.81, 1.04 for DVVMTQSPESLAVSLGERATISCMFSYNLHDMGANKNSVAWYQQKAGQPPKLLIYEMNKVTGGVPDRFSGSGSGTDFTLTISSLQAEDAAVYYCQDYHRLPLAFGGGTKVEIK [En_Gibbs].
1.16, 0.20, -0.07, 0.39, 0.35, 0.44 for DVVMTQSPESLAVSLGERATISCKLEQSTLYESRNKNSVAWYQQKAGQPPKLLIYWASTRESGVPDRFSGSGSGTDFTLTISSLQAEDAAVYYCQQYHRLPLSFGGGTKVEIK [GP_HC].
0.82, 0.83, 1.90, 0.83, 0.85, 1.16 for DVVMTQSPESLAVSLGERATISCMMSMGYLQGMRAKNNVAWYQQKAGQPPKLLIYQEETRESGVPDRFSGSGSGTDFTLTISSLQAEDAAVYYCQQYHRLPLIFGGGTKVEIK [En_HC].
1.35, 1.25, 0.69, 1.29, 1.01, 1.23 for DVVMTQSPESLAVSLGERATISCQISMLLNFESKKGDNVAWYQQKAGQPPKLLIYQMETRVNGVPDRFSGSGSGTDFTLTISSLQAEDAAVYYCQQYDRLPLSFGGGTKVEIK [En_Gen].
0.14, 0.03, 0.00, -0.21, 0.10, -0.02 for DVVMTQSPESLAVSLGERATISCKLSQSDLYESRNKNNVAWYQQKAGQPPKLLIYMASTRESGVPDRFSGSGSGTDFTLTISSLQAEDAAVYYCQQYHRLPLSFGGGTKVEIK [GP_Gen].

The authors' rule: three or more of the six replicates give a measured affinity, fewer mean a poor binder.
Empty control strains, which show no peptide, gave a signal in 4% of pairings with all light chain designs; the median was 2.64 and 95% of these signals were weaker than 1.59. No background was subtracted.
Values of this round are not directly comparable with the first-round values of the same sequences.
The parent sequence was in this pool as ten entries: three were never detected, three once, and four in most replicates, with averages from 0.34 to 2.37.